For one compound, IC50 results are on record in ChEMBL document CHEMBL1156869, “Selective inhibitors of the JMJD2 histone demethylases: combined nondenaturing mass spectrometric screening and crystallographic approaches” (J Med Chem, 2010).

Molecules are shown by their SMILES.

For the assay, the target named is T1, Lysine-specific demethylase 4A (Homo sapiens, UniProt O75164).
T1 sequence (O75164 whole entry): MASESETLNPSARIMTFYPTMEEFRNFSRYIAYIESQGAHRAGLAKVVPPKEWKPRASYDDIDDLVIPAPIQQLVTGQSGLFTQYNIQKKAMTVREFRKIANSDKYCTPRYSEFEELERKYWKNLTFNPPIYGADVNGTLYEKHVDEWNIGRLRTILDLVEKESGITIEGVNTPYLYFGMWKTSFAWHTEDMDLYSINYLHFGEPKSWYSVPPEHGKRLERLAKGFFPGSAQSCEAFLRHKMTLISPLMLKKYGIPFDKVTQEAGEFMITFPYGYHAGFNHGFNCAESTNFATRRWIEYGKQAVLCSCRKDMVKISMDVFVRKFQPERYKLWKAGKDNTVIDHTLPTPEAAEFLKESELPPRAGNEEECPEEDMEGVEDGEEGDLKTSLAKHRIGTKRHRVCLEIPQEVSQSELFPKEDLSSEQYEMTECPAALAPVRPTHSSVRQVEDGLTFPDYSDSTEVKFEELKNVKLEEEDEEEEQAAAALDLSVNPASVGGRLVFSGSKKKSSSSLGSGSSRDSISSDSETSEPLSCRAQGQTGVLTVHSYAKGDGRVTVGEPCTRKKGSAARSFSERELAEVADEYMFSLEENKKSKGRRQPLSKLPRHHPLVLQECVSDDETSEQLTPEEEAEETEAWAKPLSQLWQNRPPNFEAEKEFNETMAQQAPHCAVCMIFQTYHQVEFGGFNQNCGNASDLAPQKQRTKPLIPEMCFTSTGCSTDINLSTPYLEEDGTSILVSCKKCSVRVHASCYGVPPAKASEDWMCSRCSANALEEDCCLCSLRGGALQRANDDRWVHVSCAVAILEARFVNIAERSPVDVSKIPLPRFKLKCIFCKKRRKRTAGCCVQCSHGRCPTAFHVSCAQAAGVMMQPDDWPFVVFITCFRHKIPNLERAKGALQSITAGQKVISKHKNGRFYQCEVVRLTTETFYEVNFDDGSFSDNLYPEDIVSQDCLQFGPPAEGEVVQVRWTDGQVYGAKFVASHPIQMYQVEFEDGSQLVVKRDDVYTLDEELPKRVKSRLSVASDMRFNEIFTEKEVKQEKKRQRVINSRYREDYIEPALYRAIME
Briefly: Inhibition of JMJD2A by MALDI-TOF assay. The method in brief: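 Reaction started with 2OG (10 μM) and ARKme3STGGK peptide (10 μM), then 30 min at 37 °C. Quenched with methanol. MALDI-TOF methylation-state intensities gave % demethylation; IC50 from concentration variation.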

As usually defined, the IC50 is the concentration that gives 50% inhibition. High values mean a need for much substance, low ones inhibition by little substance. For `O=C(O)C(=O)N[C@H](Cc1ccc(OCc2ccccc2)cc1)C(=O)O`, the IC50 was 33 µM.
